Where “and” joins values, the source holds several entries; their conditions need not be identical. Equal values may be shown once. The list shows a part of the results, in another mix than the full data. Records with an inconclusive call do not appear. Calls of active or inactive are those of the source. Unless noted, calls come from the whole dose curve; as a rule, active = well fitted curve in the direction sought with a large enough effect; inconclusive = small, poorly fitted or top-dose-only effect, or another doubt; inactive = no such curve, though single readings can be large; an effect the other way counts as inactive or inconclusive.
Legend:
[1] = NFAT Signaling Pathway (AID 444; active = well fitted curve in either direction with a large enough effect, not every such curve was filed as active;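 note: carbachol stimulus at about its EC50 of 1 µM final; % is set by controls: 0 for no effect and ±100 for the full control effect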); conditions: Jurkat NFAT-bla M1, carbachol, beta-lactamase ratio, 5 h; at 7.69 µM (top of the series) unless noted
[2] = target: Guanine nucleotide-binding protein G(i) subunit alpha-1 (Homo sapiens) (UniProt P63096); test: qHTS Assay for Inhibitors of RGS12 GoLoco Motif Activity (Green Fluorophore) (AID 879); conditions: Galphai1/FITC-RGS12 GoLoco peptide, fluorescence polarization; at 57.1 µM (top of the series);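 note: 0% = labeled peptide with Gαi1 and full inhibition = labeled peptide alone without protein; negative values mean loss of peptide binding seen as reduced polarization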
Method in brief: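 A drop in FITC polarization marked displacement of the FITC-tagged RGS12 GoLoco peptide (10 nM) from Gαi1 (50 nM). Compounds were incubated 10 min at room temperature in Tris pH 7.5 buffer containing 150 mM NaCl, 0.1 mM GDP and 0.05% NP40; unlabeled peptide titration served as control.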

[3] = qHTS Assay for Identification of Small Molecule Agonists for Thrombopoietin (TPO) Signaling Pathway (AID 917); conditions: TPO signaling pathway reporter cells, agonist qHTS, stimulated with TPO at its EC50; at 38.5 µM (top of the series); note: % is set by controls: 0 for no effect and ±100 for the full control effect
[4] = target: Alpha-galactosidase A (Homo sapiens) (UniProt P06280); test: Counterscreen for Glucocerebrosidase Inhibitors: qHTS Assay for Human alpha-Galactosidase at pH 4.5 (AID 992); conditions: purified enzyme, fluorogenic substrate; at 76.9 µM (top of the series); note: 0% is about no effect
Method in brief: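 Steps: enzyme (2 nM final), then compound across 0.7 nM to 77 uM, then 80 uM fluorogenic galactopyranoside substrate; incubate 20 min at room temperature; quench at pH 10; measure fluorescence at 365/440 nm.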

[5] = target: alpha-glucosidase (Oryza sativa, rice) (UniProt Q653V4); test: Counterscreen for Glucocerebrosidase Inhibitors: qHTS Assay for Rice alpha-Glucosidase at pH 5.0 (AID 997); conditions: rice alpha-glucosidase enzyme activity; at 76.9 µM (top of the series);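 note: 0% = full activity with enzyme and -100% = basal without enzyme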
Method in brief: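 Endpoint fluorogenic assay at pH 5.0: compounds (0.7 nM to 77 uM) titrated against 4 nM rice enzyme and 400 uM 4-MU-alpha-glucoside for 20 min at room temperature; NaOH/glycine stop, read ex 365/em 440 nm, Hill-fitted AC50.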

[6] = Validation of Assay for Modulators of Lamin A Splicing (AID 1459; active = well fitted curve in the direction sought with a large enough effect in the signal ratio; the % refers to the signal ratio;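 note: cells exposed to compound for two days before reading; 0% is about no effect; ratio rise marks activators and ratio drop marks inhibitors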); conditions: Lamin A splicing dual RFP/GFP fluorescence reporter; at 9.22 µM (top of the series)
Method in brief: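 Splicing correction is reported by an EGFP-containing lamin A minigene in stably transfected S3 HeLa cells, while DsRed2 controls for viability and nonspecific signal. Cells are exposed to compounds for 48 hrs before the GFP over RFP ratio is taken.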

[7] = target: DNA repair nuclease/redox regulator APEX1 (Homo sapiens) (UniProt P27695); test: qHTS Validation Assay for Inhibitors of the Human Apurinic/apyrimidinic Endonuclease 1 (APE1) (AID 1705;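 note: TAMRA fluorescence gain over two minutes as APE1 cuts a quenched THF abasic duplex; % is set by controls: 0 for no effect and ±100 for the full control effect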); conditions: purified APE1 endonuclease activity, fluorescence, titration; at 57.1 µM (top of the series)
Method in brief: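 Endonuclease activity of human APE1 is followed as dequenching when the enzyme incises a tetrahydrofuran abasic site in a short duplex labelled 5'-TAMRA/3'-BHQ-2 (50 nM final), after 15 min enzyme–compound preincubation at room temperature.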

[8] = Counterscreen for APE1 Inhibitors: Fluorescent Dye Displacement Validation Assay (AID 1707); conditions: fluorescent dye displacement from DNA; at 57.1 µM (top of the series);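 note: plate controls were ThO with dsDNA and no compound for no effect and ThO without dsDNA for full effect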
Method in brief: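 Reaction mixture of 250 nM Thiazole Orange and 50 nM double-stranded abasic-site DNA was dispensed, compounds were pin-transferred, and fluorescence was read at endpoint (480 nm ex, 540 nm em). Reduced fluorescence indicated dye displacement by DNA binding.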

[9] = target: ATP-dependent DNA helicase Q1 (Homo sapiens) (UniProt P46063); test: qHTS Validation Assay for Inhibitors of RecQ-Like Dna Helicase 1 (RECQ1) (AID 2353); conditions: recombinant RECQ1 helicase DNA unwinding assay; at 25.6 µM (top of the series);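 note: plate controls were DMSO vehicle for no effect and enzyme-free control for full effect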
Method in brief: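 RECQ1T1 50 nM; forked duplex (20 bp + 30-nt ss tails) 200 nM, ATP 2 mM final; pH 8.0, 2 mM MgCl2, 2.5 ug/ml poly(dI-dC); 15 min compound preincubation; discontinuous kinetic read over 2 h at RT.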

[10] = target: RecQ-like DNA helicase BLM (Homo sapiens) (UniProt P54132); test: qHTS Validation Assay for Inhibitors of Bloom's syndrome helicase (BLM) (AID 2364); conditions: BLM helicase DNA unwinding, fluorescence, in vitro; at 57.1 µM (top of the series);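 note: plate controls were DMSO vehicle for no effect and enzyme-free control for full effect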
[11] = Validation screen for small molecules that induce DNA re-replication in MCF 10A normal breast cells (AID 463097); conditions: MCF 10A cells, DNA re-replication phenotype imaging; at 46.1 µM (top of the series); note: 0% is about no effect; nearly all actives have a fitted effect of over 60% in size
Method in brief: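 DNA re-replication was detected as a rise in nuclei with elevated Hoechst fluorescence after a 48 hr compound exposure of MCF 10A cells at 37 C.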

[12] = target: M-phase phosphoprotein 8 (Homo sapiens) (UniProt Q99549); test: qHTS Validation Assay for Inhibitors for MPP8 Chromodomain Interactions with Methylated Histone Tails (AID 488949); conditions: AlphaScreen MPP8 binding to H3K9me3 peptide; at 114 µM (top of the series);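 note: AlphaScreen signal from MPP8 chromodomain bound to biotinylated H3K9me3 peptide; top concentration of the series differs between compounds; % is set by controls: 0 for no effect and ±100 for the full control effect; nearly all actives have a fitted effect of over 55% in size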
Method in brief: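 Disruption of the preformed MPP8–trimethyl-H3K9 peptide complex (both 50 nM, 30 min, RT) is measured after 30 min compound exposure, using AlphaScreen proximity beads; aurintricarboxylic acid titration serves as plate control.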

[13] = target: Thyrotropin-releasing hormone receptor (Homo sapiens) (UniProt P34981); test: qHTS for Small Molecule Agonists and Allosteric Enhancers of Human TRH Receptor: Validation Screen for Agonists (AID 493127;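 active = calcium activation more than 3 SD above the typical response in the agonist read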;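 note: intracellular calcium rise by fluo-8 fluorescence before TRH EC20 addition; 0% is about no effect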); conditions: TRH receptor agonist cell assay; at 2 µM; stronger effect = higher value
Method in brief: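 Compounds are added by online pintool to dye-loaded TRHR cells while fluorescence is recorded every second. A rise in calcium signal during the agonist read marks activation; a later 10 nM TRH addition (EC20) serves the separate enhancer mode.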

[14] = target: Galactokinase (Homo sapiens) (UniProt P51570); test: qHTS Validation Assay for Inhibitors of Human Galactokinase (GALK) (AID 493189); conditions: purified human GALK enzyme activity, qHTS 7-point titration; at 57.5 µM (top of the series); note: 0% is about no effect
Method in brief: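 Compounds were pin-transferred into ATP buffer, then GALK-galactose mix was added (final 5 nM enzyme, 100 uM galactose, 35 uM ATP). After 1 h at room temperature, remaining ATP was measured luminescently.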

[15] = Validation screen for small molecules that induce DNA re-replication in SW480 colon adenocarcinoma cells (AID 504364); conditions: DNA re-replication phenotype (high-content imaging); at 46.1 µM (top of the series); note: 0% is about no effect
Method in brief: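 Image-based qHTS: compounds were incubated with SW480 cells for 48 hr, nuclei stained with Hoechst, and per-nucleus fluorescence intensity scanned to flag cells with excess DNA content.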

CN(C(=O)Cc1ccc(Cl)c(Cl)c1)[C@@H]1CCCC[C@H]1N1CCCC1
inactive: activity change, negative = inhibition [1] -24.9% [at 38 µM] and -25.8% [at 38 µM] and -25.5% [at 38 µM] | activity, negative = inhibition [2] 2.12% [middle of 4 runs] | activity, positive = activation [3] 0.417% [middle of 4 runs] | activity change, negative = inhibition [4] -4.4% [middle of 4 runs] | activity change, negative = inhibition [5] -3.22% [middle of 4 runs] | ratio change, both ways [6] -12.9% | activity change, negative = inhibition [7] 1.51% | activity change, negative = inhibition [8] 0.28% | activity change, negative = inhibition [9] -1.57% | activity change, negative = inhibition [10] -2.97% | re-replication induction [11] 0.0327% | activity change, negative = inhibition [12] -2.92% | activation [13] -0.125% | activity change, negative = inhibition [14] -0.819% | activity (re-replication induction) [15] 14.1%

From PubChem BioAssay (NCATS)
